From PubChem BioAssay AID633 (Emory University Molecular Libraries Screening Center, 2007)
The list shows a part of the results, in another mix than the full data. The source made the active and inactive calls.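 How the source made its calls: active means compounds whose percent inhibition of the receptor-coactivator binding signal exceeds about 50% in the single-dose screen (limit read from the data); inactive means the rest.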

By UniProt entry, the sequences of proteins in these tests, tags left out.
UniProt Q92731, whole entry: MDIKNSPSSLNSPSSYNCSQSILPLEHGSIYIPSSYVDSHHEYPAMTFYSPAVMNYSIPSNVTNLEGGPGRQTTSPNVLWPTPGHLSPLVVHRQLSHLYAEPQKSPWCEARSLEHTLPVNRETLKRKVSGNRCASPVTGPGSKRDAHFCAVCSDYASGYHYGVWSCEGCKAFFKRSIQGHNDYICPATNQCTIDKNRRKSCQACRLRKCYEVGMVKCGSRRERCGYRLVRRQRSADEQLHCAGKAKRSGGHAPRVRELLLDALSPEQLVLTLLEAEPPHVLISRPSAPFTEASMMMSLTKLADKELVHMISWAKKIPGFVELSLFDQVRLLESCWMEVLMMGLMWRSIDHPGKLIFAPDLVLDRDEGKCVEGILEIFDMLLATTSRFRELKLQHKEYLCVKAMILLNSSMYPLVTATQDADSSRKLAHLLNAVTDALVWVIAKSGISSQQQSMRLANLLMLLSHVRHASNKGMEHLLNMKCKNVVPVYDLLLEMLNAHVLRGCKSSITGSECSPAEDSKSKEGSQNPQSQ

target: Estrogen receptor beta (Homo sapiens) (UniProt Q92731); test: inhibitors of ERβ-SRC1 coactivator interaction, primary screen, biochemical, TR-FRET, ERβ LBD, SRC-1 peptide (AID 633); conditions: TR-FRET ER-beta LBD / SRC1-Cy5 peptide binding; at 25.6 µM; stronger effect = higher value;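 further: 0% = receptor plus peptide wells without compound and 100% = peptide-only wells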

SMILES | inhibition
Fc1ccccc1NC1CCN(Cc2ccccc2)CC1 | inactive: 0.19%
CCC(CO)(C(=O)OC1CN2CCC1CC2)c1ccccc1 (centres undefined) | inactive: -1.42%
CCOc1ncccc1C(=O)NCC1(N2CCOCC2)CCCCC1 | inactive: 2.45%
N/C(=N\O)c1c(N)no[n+]1[O-] | inactive: -8.74%
c1ccc(CN2CCC(Nc3ccccc3)CC2)cc1 | inactive: -1.53%
O=C(NCC1(N2CCOCC2)CCCCC1)c1cc(=O)[nH]c2ccccc12 | inactive: 6.05%
N#CC1(Nc2ccccc2)CCN(CCc2ccccc2)CC1 | inactive: -19.1%
O=C(NCC1(N2CCOCC2)CCCCC1)c1cc2ccccc2o1 | inactive: 3.69%
O=C(OC1CN2CCC1CC2)C1c2ccccc2Oc2ccccc21 (centres undefined) | inactive: -0.2%
